AlphaSeq binding of Ab-95 light chain variants to a spike HR2 peptide

All variants were tested on one target, the spike HR2 peptide PDVDLGDISGINAS (SARS-CoV-2).

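The starting antibody came from a phage panning campaign against this peptide. Library AAYL52 holds single substitutions and randomly drawn double and triple substitutions in the CDRs. The scFvs were displayed on barcoded MATa yeast, the peptide on MATalpha yeast. The frequency of each diploid, read from paired DNA barcodes, reflects how well the two displayed proteins bind. A regression on co-assayed BCL2-family reference pairs converts the normalised counts of each replicate to an apparent Kd. Each pool was mated in three replicate cultures.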

Ab-95 is the parent antibody, in scFv form: VH, then three GGGGS repeats, then VL. The heavy chain is unchanged in all variants.
VH: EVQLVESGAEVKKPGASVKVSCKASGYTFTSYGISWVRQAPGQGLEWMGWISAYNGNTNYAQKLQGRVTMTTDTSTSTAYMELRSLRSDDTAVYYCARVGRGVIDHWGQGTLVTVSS
VL: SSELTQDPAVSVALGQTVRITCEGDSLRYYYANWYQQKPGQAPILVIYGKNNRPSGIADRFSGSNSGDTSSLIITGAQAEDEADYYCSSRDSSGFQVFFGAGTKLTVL

Variants are written as CDR1, CDR2 and CDR3 of the light chain (limits as in the source). Parent: EGDSLRYYYAN, GKNNRPS, SSRDSSGFQVF.
Numbers give log10(Kd / nM), so 0 is 1 nM and 3 is 1 µM. Smaller is tighter.
Averages over replicates are reported, and they cover detected replicates only.
A pair that was not seen in that replicate is written "n.d."; this usually means weak binding, but a binder can also be missed.

| CDR-L1 | CDR-L2 | CDR-L3 | log10 Kd (nM) by replicate | mean, log10 nM | signal with controls |
|---|---|---|---|---|---|
| EGCSLRYYYAN | GKNNRPG | SSRDSSGPQVF | n.d. 3.23 4.33 | 3.78 | 4 of 9 (3.94) |
| EGDSLRYYYAN | WCNNRPS | SSRDSSGFQAF | n.d. n.d. n.d. | n.d. | 0 of 9 |
| SGDSHRYYYAN | GKNNRPS | SSRSSSGFQVF | 4.29 3.88 2.46 | 3.55 | 3 of 9 (3.94) |
| EGDSLRAYYAN | GKNNRPE | SSRDSSGFQVF | 1.63 1.36 0.93 | 1.30 | 3 of 9 (4.38) |
| EGDSLRWYEAN | GKNNRPS | SSRDSSGFQVF | 1.36 1.40 1.00 | 1.25 | 3 of 9 (3.86) |
| EGDSLRYYYAK | GKINRPS | SSRDSSGFQVW | 4.79 n.d. n.d. | 4.79 | 0 of 9 |
| EPDSMRYYYAN | GKNNRPS | SSRDSSGKQVF | 3.75 4.19 n.d. | 3.97 | 3 of 9 (3.56) |
| EGDSLRYYYAN | GGNNRPS | SSPDSLGFQVF | 1.98 2.01 1.56 | 1.85 | 2 of 9 (3.53) |
| EGDSLRNYYAN | GKNNRPS | SSRDNSGFQVH | 1.81 1.51 1.56 | 1.63 | 0 of 9 |
| EGDSLRYYRAN | GKNNRPS | SHCDSSGFQVF | n.d. n.d. n.d. | n.d. | 0 of 9 |
| EGDSARYYYAR | GKNNRPR | SSRDSSGFQVF | 3.30 2.81 2.98 | 3.03 | 4 of 9 (3.81) |
| EGDSLRYYYAN | GKWNRPS | HSRDSSGFWVF | 3.29 n.d. 4.19 | 3.74 | 2 of 9 (3.64) |
| EGDSLRYYYAN | CWNNRPS | SARDSSGFQVF | n.d. 3.87 n.d. | 3.87 | 1 of 9 (3.80) |
| ECDSLRYYYAN | GKNNRPS | SSRDSAGDQVF | 3.69 3.70 3.42 | 3.60 | 7 of 9 (4.17) |
| RGDSLRYYYAN | GKNNRPS | SSRDSSYFQVS | 5.27 2.64 3.71 | 3.87 | 8 of 9 (4.01) |
| EGDSLAYYYAN | GKKNRPS | SSRDSSGFFVF | 4.55 n.d. n.d. | 4.55 | 3 of 9 (3.64) |
| EGDSKRYYYAN | GKNNRPS | SSRDSLGFQQF | 3.96 n.d. n.d. | 3.96 | 1 of 9 (4.57) |
| EFDSLRYYYAN | GKWNRPS | SSRQSSGFQVF | 3.82 n.d. n.d. | 3.82 | 4 of 9 (3.69) |
| ENDSLRYYYTN | GKTNRPS | SSRDSSGFQVF | 2.82 3.72 3.55 | 3.37 | 2 of 9 (4.04) |
| EGDSLHYYYAN | GKNNPPS | FSRDSSGFQVF | n.d. 4.13 4.10 | 4.12 | 3 of 9 (4.07) |
| EWDSLRYYYAN | GKNNRQS | SSRDSSYFQVF | 4.76 5.41 n.d. | 5.08 | 2 of 9 (3.90) |
| EGDSLRYFYAM | GKNNRPS | SSRDSSEFQVF | 4.18 n.d. 2.79 | 3.48 | 1 of 9 (3.71) |
| EGDSERYYYAN | GKNNRMS | SSRDSSYFQVF | n.d. n.d. n.d. | n.d. | 3 of 9 (4.51) |
| EGDSLRYYYKK | GKNNGPS | SSRDSSGFQVF | 3.79 3.81 3.13 | 3.58 | 3 of 9 (4.26) |
| EGDSLRYYYAN | GKNTPPS | SSRDSSRFQVF | 3.79 3.75 3.62 | 3.72 | 3 of 9 (3.12) |
| EGDSLRYYRAN | GKNNRPS | SSRDSSGIQHF | 3.64 4.63 4.13 | 4.14 | 0 of 9 |
| EGDSLRYYYAN | GCNNRPS | SSRDSPGFQVF | n.d. n.d. n.d. | n.d. | 1 of 9 (4.41) |
| EGHSLRYYYAD | GKNNRPS | SSRDSSGFGVF | 4.01 4.77 n.d. | 4.39 | 2 of 9 (4.09) |
| EGDSLRYYYAN | GKNQRPS | SSRDSSGFQVF | 1.89 1.72 1.41 | 1.67 | 1 of 9 (2.91) |
| TGDSLFYYYAN | GKNNRPS | SSRDSSGFHVF | 2.49 3.18 2.14 | 2.60 | 0 of 9 |
| EGDSLQYYYKN | GKNNRPK | SSRDSSGFQVF | 3.34 3.17 n.d. | 3.25 | 1 of 9 (4.52) |
| EGDSLRYYYIN | GKNNHPS | SSRDSAGFQVF | n.d. 5.22 n.d. | 5.22 | 2 of 9 (4.86) |
| KGDSLRYYYYN | GKNNRPS | SSRDSSGFQVF | 2.60 2.43 2.38 | 2.47 | 1 of 9 (3.48) |

Excerpt, the first 4 entries:

{"CDR-L1": "EGCSLRYYYAN", "CDR-L2": "GKNNRPG", "CDR-L3": "SSRDSSGPQVF", "log10 Kd (nM) by replicate": "n.d. 3.23 4.33", "mean, log10 nM": "3.78", "signal with controls": "4 of 9 (3.94)"}
{"CDR-L1": "EGDSLRYYYAN", "CDR-L2": "WCNNRPS", "CDR-L3": "SSRDSSGFQAF", "log10 Kd (nM) by replicate": "n.d. n.d. n.d.", "mean, log10 nM": "n.d.", "signal with controls": "0 of 9"}
{"CDR-L1": "SGDSHRYYYAN", "CDR-L2": "GKNNRPS", "CDR-L3": "SSRSSSGFQVF", "log10 Kd (nM) by replicate": "4.29 3.88 2.46", "mean, log10 nM": "3.55", "signal with controls": "3 of 9 (3.94)"}
{"CDR-L1": "EGDSLRAYYAN", "CDR-L2": "GKNNRPE", "CDR-L3": "SSRDSSGFQVF", "log10 Kd (nM) by replicate": "1.63 1.36 0.93", "mean, log10 nM": "1.30", "signal with controls": "3 of 9 (4.38)"}

In this assay the parent's reference entry averaged 2.31; its copy inside this library read 2.25.
Empty control strains, which show no peptide, gave a signal in 28% of pairings with library AAYL52; the median was 3.91 and 95% of these signals were weaker than 2.90. No background was subtracted. Also given: how often the same scFv was detected with the empty control strains, with their mean in brackets.

The measurements come from Engelhart et al. 2022 (doi:10.1038/s41597-022-01779-4) through the FLAb antibody collection.